Source: patent publication US7563809B2, “Nociceptin analogs” (dated 2009)
pKi: −log10 of the molar value.

target: Mu opioid receptor (Homo sapiens, UniProt P35372); assay: Affinity at the μ receptor ([35S]GTPγS binding, membranes); conditions: read-out: Mu Receptor Affinity calc Ki, Table 3

Structure (SMILES) | pKi
O=C1CCc2ccccc2N1C1CCN(C2CCC3CCCCC3C2)CC1 (centres unmarked) | 6.47
O=C1CCc2ccccc2N1C1CCN(C2CC3CCC2C3)CC1 (centres unmarked) | 6.02
O=C1CCc2ccccc2N1C1CCN(C2CCCCCCC2)CC1 | 7.07

target: human opioid receptor-like receptor (ORL-1) (Homo sapiens, UniProt P41146); assay: Nociceptin affinity at the ORL1 receptor ([35S]GTPgS binding, membranes of recombinant HEK-293 cells); conditions: read-out: Nociceptin Affinity calc Ki; Table 1; ORL-1 membranes from recombinant HEK-293 cells; benzothiadiazole/benzothiadiazine series

Structure (SMILES) | pKi
O=S1(=O)Nc2ccccc2N1C1CCN(CC2CCCCCCC2)CC1 | 7.31
CCCCOC(=O)CN1Cc2ccccc2N(C2CCN(C3CCC(C(C)C)CC3)CC2)S1(=O)=O (centres unmarked) | 7.20
CC(C)C1CCC(N2CCC(N3c4ccccc4CN(CCNS(C)(=O)=O)S3(=O)=O)CC2)CC1 (centres unmarked) | 8.30
CC(C)C1CCC(N2CCC(N3c4ccccc4CN(CCO)S3(=O)=O)CC2)CC1 (centres unmarked) | 8.13
CCCCN1Cc2ccccc2N(C2CCN(C3CCC(C(C)C)CC3)CC2)S1(=O)=O (centres unmarked) | 7.74
COC(=O)CN1Cc2ccccc2N(C2CCN(C3CCC(C(C)C)CC3)CC2)S1(=O)=O (centres unmarked) | 7.39
O=S1(=O)Nc2ccccc2N1C1CCN(C2CCC3CCCCC3C2)CC1 (centres unmarked) | 6.65
CC(C)C1CCC(N2CCC(N3c4ccccc4NS3(=O)=O)CC2)CC1 (centres unmarked) | 6.45

same assay, conditions: read-out: Nociceptin Affinity calc Ki; Table 2; ORL-1 membranes from recombinant HEK-293 cells; quinolin-2-one series

Structure (SMILES) | pKi
O=C1CCc2ccccc2N1C1CCN(C2CCC3CCCCC3C2)CC1 (centres unmarked) | 6.98
O=C1CCc2ccccc2N1C1CCN(Cc2ccc3ccccc3c2)CC1 | 5.47
O=C1CCc2ccccc2N1C1CCN(CCC(c2ccccc2)c2ccccc2)CC1 | 7.15
O=C1CCc2ccccc2N1C1CCN(C2c3ccccc3CCc3ccccc32)CC1 | 7.02
O=C1CCc2ccccc2N1C1CCN(C2CCc3ccccc3C2)CC1 (centres unmarked) | 6.75
O=C1CCc2ccccc2N1C1CCN(C2CC3CCC2C3)CC1 (centres unmarked) | 6.11
O=C1CCc2ccccc2N1C1CCN(C2CCCCCCC2)CC1 | 7.85
O=C1CCc2ccccc2N1C1CCN(Cc2ccc(OCc3ccccc3)cc2)CC1 | 5.46
O=C1CCc2ccccc2N1C1CCN(C2Cc3ccccc3C2)CC1 | 7.15
O=C1CCc2ccccc2N1C1CCN(CCCC(c2ccc(F)cc2)c2ccc(F)cc2)CC1 | 5.54
CCCC1CCC(N2CCC(N3C(=O)CCc4ccccc43)CC2)CC1 (centres unmarked) | 5.90
O=C1CCc2ccccc2N1C1CCN(Cc2ccc(-c3ccccc3)cc2)CC1 | < 5.00
